The numbers were not newly measured in patent US5767072A (priority 1993, dated 1998), which cites them from elsewhere.

For the data set the following is noted: in vivo; cited from earlier work.

“HSA: human serum albumin, proposed carrier protein”: the half-life in humans was 170 h.
